One-dose inflammasome screen (PubChem AID 2061109, Seoul National University)
system: mouse macrophages from bone marrow, LPS + nigericin (NLRP3)
compound dose: 5 µM
value: % inhibition of cell death (propidium iodide), 0 = stimulated, 100 = untreated, floor at 0
*: called active, above 70% Part of the library is listed.

{"SMILES": "O=[N+]([O-])c1cccc2cn[nH]c12", "inhibition (%)": "0.0"}
{"SMILES": "CNC(=O)c1ccc(Oc2ccc3c(c2)CCN(C2CCC2)CC3)nc1", "inhibition (%)": "39.9"}
{"SMILES": "Cn1nc(-c2cnc(N)c(-c3ccc(C(N)=O)c(F)c3)n2)nc1C1(c2ccccc2)CC1", "inhibition (%)": "0.0"}
{"SMILES": "COc1ccc(-c2cc(=O)c3c(O)cc(O)c(-c4cc(-c5cc(=O)c6c(O)cc(OC)cc6o5)ccc4OC)c3o2)cc1", "inhibition (%)": "62.0"}
{"SMILES": "COc1ccccc1[C@H](Cn1c(=O)n(C(C)(C)C(=O)O)c(=O)c2c(C)c(-c3ncco3)sc21)OC1CCOCC1", "inhibition (%)": "0.0"}
{"SMILES": "Cc1cc(C#N)cnc1C(=O)Nc1ccc(F)c([C@]2(C)CO[C@@](C)(C(F)(F)F)C(N)=N2)c1", "inhibition (%)": "0.0"}
{"SMILES": "COc1cccc(-c2ccc(NC(=O)C3=C(C(=O)O)CCC3)c(F)c2)c1", "inhibition (%)": "0.0"}
{"SMILES": "CCOC(=O)C1=C(C)NC2=C(C(=O)CC(C)(C)C2)C1c1ccc(-c2ccccc2)cc1", "inhibition (%)": "4.0"}
{"SMILES": "CC(C)(N)c1ccc(-c2nc3ccccc3nc2-c2ccccc2)cc1.Cl", "inhibition (%)": "0.0"}
{"SMILES": "CN(C)[C@@H]1C(=O)C(C(N)=O)=C(O)[C@@]2(O)C(=O)C3=C(O)c4c(O)cccc4C[C@H]3C[C@@H]12", "inhibition (%)": "14.0"}
{"SMILES": "O=C(Nc1ccc(-n2nc(C(F)(F)F)cc2OC(F)F)cc1)c1ccncc1F", "inhibition (%)": "13.5"}
{"SMILES": "FC(F)(F)c1ccc(/C=C/c2nc(COc3ccc(CCCCn4ccnn4)cc3)co2)cc1", "inhibition (%)": "0.0"}
{"SMILES": "c1c2c(cc3c1OCO3)-c1cc3ccc4c(c3c[n+]1CC2)OCO4", "inhibition (%)": "55.6"}
{"SMILES": "O=C(O)[C@@H](Cc1ccccc1)Nc1cc(-c2ccc(OCc3ccccc3)cc2)ncn1", "inhibition (%)": "0.0"}
{"SMILES": "CC(C)(C)[C@@H]1NC(=O)O[C@@H]2CCC[C@H]2OCC=CC(F)(F)c2nc3ccccc3nc2O[C@@H]2C[C@@H](C(=O)N[C@]3(C(=O)NS(=O)(=O)C4(C)CC4)C[C@H]3C(F)F)N(C2)C1=O", "inhibition (%)": "80.3*"}
{"SMILES": "CNC(=O)[C@@H](c1ccccc1)N1CCc2cc(OC)c(OC)cc2[C@H]1CCc1ccc(C(F)(F)F)cc1", "inhibition (%)": "8.0"}
{"SMILES": "O=C1CN(CCN2CC(=O)N(CN3CCOCC3)C(=O)C2)CC(=O)N1CN1CCOCC1", "inhibition (%)": "31.0"}
{"SMILES": "CCC(N)(C(=O)O)c1ccc(C(=O)O)cc1", "inhibition (%)": "48.6"}
{"SMILES": "CCCCCOc1ccc(-c2cc(-c3ccc(C(=O)N[C@H]4C[C@@H](O)[C@@H](O)NC(=O)[C@@H]5[C@@H](O)[C@@H](C)CN5C(=O)[C@H]([C@H](O)CC(N)=O)NC(=O)[C@H]([C@H](O)[C@@H](O)c5ccc(O)c(OS(=O)(=O)[O-])c5)NC(=O)[C@@H]5C[C@@H](O)CN5C(=O)[C@H]([C@@H](C)O)NC4=O)cc3)no2)cc1.[Na+]", "inhibition (%)": "0.0"}
{"SMILES": "CCc1nn2c(C)cc(C)nc2c1Cc1ccc(-c2nnc(C3CCNCC3)o2)cc1", "inhibition (%)": "66.4"}
{"SMILES": "Cn1c(=O)c2[nH]cnc2n(C)c1=O", "inhibition (%)": "0.0"}
{"SMILES": "O=C(Nc1nnc(-c2ccc(F)cc2)o1)N1CCc2ccccc2C1", "inhibition (%)": "9.2"}
{"SMILES": "O=C(N[C@H](Cc1ccccc1)C(=O)O)c1sc2cc(F)ccc2c1Cl", "inhibition (%)": "18.4"}
{"SMILES": "C[C@@H](NC(=O)c1ccc(Cl)cc1)C1CCC(c2ccnc3ccc(F)cc23)CC1", "inhibition (%)": "61.0"}
{"SMILES": "COc1cc2ncnc(Nc3ccc(F)c(Cl)c3)c2cc1O", "inhibition (%)": "0.0"}
{"SMILES": "C[C@@H]1OCC2(CCN(c3cnc(Sc4ccnc(N)c4Cl)c(N)n3)CC2)[C@@H]1N", "inhibition (%)": "66.4"}
{"SMILES": "COc1ccccc1/C=C/C(=O)O", "inhibition (%)": "62.2"}
{"SMILES": "CC(C)n1c(=O)n(C)c2cnc3cc(F)c(-c4ccc(OCCCN5CCCCC5)nc4)cc3c21", "inhibition (%)": "81.2*"}
{"SMILES": "CCCSc1nc(N2CCC[C@@H](CC(=O)O)C2)ccc1C(=O)NC1CCCCC1", "inhibition (%)": "0.0"}
{"SMILES": "COc1ncc(-c2ccc3ncc(Cl)c(=O)n3c2)cc1NS(=O)(=O)c1ccc(F)cc1F", "inhibition (%)": "76.9*"}
{"SMILES": "O=C(O[C@@H]1Cc2c(O)cc(O)cc2O[C@@H]1c1cc(=O)c(O)c2c(O)c(O)cc([C@H]3Oc4cc(O)cc(O)c4C[C@H]3OC(=O)c3cc(O)c(O)c(O)c3)c2c1)c1cc(O)c(O)c(O)c1", "inhibition (%)": "52.3"}
{"SMILES": "CN[C@@H]1[C@@H](O)[C@@H](O[C@@H]2[C@@H](O)[C@H](O[C@H]3O[C@H]([C@@H](C)NC)CC[C@H]3N)[C@@H](N)C[C@H]2N)OC[C@]1(C)O.O=S(=O)(O)O", "inhibition (%)": "10.0"}
{"SMILES": "OCc1ccc(-c2nn(Cc3ccccc3)c3ccccc23)o1", "inhibition (%)": "83.2*"}
{"SMILES": "Oc1cc2c(cc1O)CN(C(=S)NCCc1ccc(Cl)cc1)CCC2", "inhibition (%)": "12.7"}
{"SMILES": "O=c1c2ccccc2nc(/C=C/c2cccnc2)n1Cc1ccccc1", "inhibition (%)": "75.0*"}
{"SMILES": "Nc1ccc(-c2cnc(N)c(-c3ccc(Cl)cc3)c2)cn1", "inhibition (%)": "0.0"}
{"SMILES": "NC(=O)[C@H]1CCN(c2ncnc(N)c2F)C[C@@H]1N1CCC[C@@H](Nc2cc(Cl)cc(C(F)(F)F)c2)C1=O", "inhibition (%)": "0.0"}
{"SMILES": "CC1(C)CC[C@]2(C(=O)O[C@@H]3O[C@H](CO)[C@@H](O)[C@H](O)[C@H]3O)CC[C@]3(C)C(=CC[C@@H]4[C@@]5(C)CC[C@H](O[C@@H]6O[C@H](C(=O)O)[C@@H](O)[C@H](O)[C@H]6O[C@@H]6O[C@H](CO)[C@@H](O)[C@H](O)[C@H]6O)C(C)(C)[C@@H]5CC[C@]43C)[C@@H]2C1", "inhibition (%)": "17.8"}
{"SMILES": "Br.CCCc1cc(-c2nc(-c3ccc(C)cc3)cs2)ccn1", "inhibition (%)": "71.8*"}
{"SMILES": "C=CC(=O)N1CCC[C@@H](n2c(=O)n(-c3ccc(Oc4ccccc4)cc3)c3c(N)nccc32)C1", "inhibition (%)": "0.0"}
{"SMILES": "CC1=NNC(=O)C1=Cc1cn(-c2ccccc2)nc1-c1ccccc1", "inhibition (%)": "71.9*"}
{"SMILES": "CS[C@@]1(C(=O)Nc2ccc3[nH]nc(-c4ccc(OC(C)C)nc4)c3c2)CCN(CC(=O)N2CC=C(c3ccc(-c4ncn(C)n4)cc3)CC2)C1", "inhibition (%)": "78.7*"}

For reference, 7 entries again:

SMILES | inhibition (%)
Oc1cc2c(cc1O)CN(C(=S)NCCc1ccc(Cl)cc1)CCC2 | 12.7
C=CC(=O)N1CCC[C@@H](n2c(=O)n(-c3ccc(Oc4ccccc4)cc3)c3c(N)nccc32)C1 | 0.0
COc1cc2ncnc(Nc3ccc(F)c(Cl)c3)c2cc1O | 0.0
C[C@@H]1OCC2(CCN(c3cnc(Sc4ccnc(N)c4Cl)c(N)n3)CC2)[C@@H]1N | 66.4
COc1ccc(-c2cc(=O)c3c(O)cc(O)c(-c4cc(-c5cc(=O)c6c(O)cc(OC)cc6o5)ccc4OC)c3o2)cc1 | 62.0
CC1(C)CC[C@]2(C(=O)O[C@@H]3O[C@H](CO)[C@@H](O)[C@H](O)[C@H]3O)CC[C@]3(C)C(=CC[C@@H]4[C@@]5(C)CC[C@H](O[C@@H]6O[C@H](C(=O)O)[C@@H](O)[C@H](O)[C@H]6O[C@@H]6O[C@H](CO)[C@@H](O)[C@H](O)[C@H]6O)C(C)(C)[C@@H]5CC[C@]43C)[C@@H]2C1 | 17.8
CN[C@@H]1[C@@H](O)[C@@H](O[C@@H]2[C@@H](O)[C@H](O[C@H]3O[C@H]([C@@H](C)NC)CC[C@H]3N)[C@@H](N)C[C@H]2N)OC[C@]1(C)O.O=S(=O)(O)O | 10.0